Laboratory results: PMC2875304 (Experimental parasitology, 2010)

System: Trypanosoma cruzi (M/HOM/AR/74/CA-I CL72)
Assay type: cell-based
Conditions: read-out: IC50B; peptide B alone; 50% reduction in untreated-culture growth after 96 hours; triplicate wells, three independent trials

Question: How did the IC50 turn out when CC[C@H](C)[C@H](NC(=O)CN)C(=O)NCC(=O)N[C@@H](C)C(=O)N[C@H](C(=O)N[C@@H](CC(C)C)C(=O)N[C@@H](CCCCN)C(=O)N[C@H](C(=O)N[C@@H](CC(C)C)C(=O)N[C@H](C(=O)N[C@H](C(=O)NCC(=O)N[C@@H](CC(C)C)C(=O)N1CCC[C@H]1C(=O)N[C@@H](C)C(=O)N[C@@H](CC(C)C)C(=O)N[C@H](C(=O)N[C@@H](CO)C(=O)N[C@@H](Cc1c[nH]c2ccccc12)C(=O)N[C@H](C(=O)N[C@@H](CCCCN)C(=O)N[C@@H](CCCNC(=N)N)C(=O)N[C@@H](CCCCN)C(=O)N[C@@H](CCCNC(=N)N)C(=O)N[C@@H](CCC(N)=O)C(=O)N[C@@H](CCC(N)=O)C(N)=O)[C@@H](C)CC)[C@@H](C)CC)[C@@H](C)O)[C@@H](C)O)C(C)C)C(C)C [Melittin, melittin] was run?
Answer: The IC50 was 0.8 µM.
